Experimental data: patent US6362203B1, “4-hydroxy-4-phenylpiperidine derivatives and pharmaceuticals containing the same” (SSP Co., LTD, priority 1999, dated 2002)

System: opioid receptor
Conditions: agonist activity relative to DAMGO (=1.0); guinea pig ileum longitudinal muscle sample
Method: Test 1: Action on the ileum sample excised from a guinea pig
A Hartley male guinea pig of about 500 g in weight was employed. From its ileocecum, 15 to 30 cm of the ileum was excised and a longitudinal muscle sample attached with the Auerbach's plexus was prepared. […] The agonist activity was indicated in terms of relative potency to DAMGO ([D-Ala^2, N-MePhe^4, Gly^5-ol]-enkephalin), a selective μ-opioid agonist.

## CN1CC[C@]23c4c5ccc(O)c4O[C@H]2[C@@H](O)C=C[C@H]3[C@H]1C5 [Morphine]
  Relative potency: 0.14
